# Yeast mating assay B: variants of the scFv Ab-14

The target is the same throughout: PDVDLGDISGINAS, from the HR2 region of SARS-CoV-2 spike.

The variants keep the heavy chain, the linker and the frameworks of Ab-14 (scFv order VH, a (GGGGS)3 linker, VL).
VH: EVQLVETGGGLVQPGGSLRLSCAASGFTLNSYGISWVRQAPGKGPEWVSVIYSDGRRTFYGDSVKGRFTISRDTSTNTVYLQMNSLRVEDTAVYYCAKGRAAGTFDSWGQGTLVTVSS
VL: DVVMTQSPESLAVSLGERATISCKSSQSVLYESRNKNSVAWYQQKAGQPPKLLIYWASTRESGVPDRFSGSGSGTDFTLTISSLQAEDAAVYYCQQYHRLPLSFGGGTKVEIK

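Phage display of a naive human antibody library on the peptide gave the parent. The variants were designed computationally from a first round of random CDR variants and then made and measured. Several design methods are mixed in this list. The scFvs were displayed on barcoded MATa yeast, the peptide on MATalpha yeast. After mating in shaken culture at 30 °C for 16 h, diploids were selected and their barcode pairs sequenced. Scores were corrected for input abundance and mapped to Kd with protein pairs of known affinity run in the same pool. Each pool was mated in six replicate cultures.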

The whole VL of each variant is written out.
Variants here have more than six changes.
Values are apparent Kd, the geometric mean of the replicates that gave a signal; lower means stronger binding.
"not detected" marks a missing value. The strain was present, yet no cells mated with the target were sequenced in any replicate, which points to weak or no binding.
Of ten entries with the parent sequence, four were seen in most replicates (averages 2.2 nM to 240 nM), three in one and three in none, so single entries are noisy.
The authors' rule: three or more of the six replicates give a measured affinity, fewer mean a poor binder.
Background: pairings of all light chain designs with three empty control strains gave a value in 4% of cases (median 430 nM, 5th percentile 38 nM). Values in that range, when seen in few replicates, are hard to tell from nonspecific mating. For each scFv, signals with the empty controls are counted beside the result.
Values of this round are not directly comparable with the first-round values of the same sequences.

VL	apparent Kd	detected	control signals
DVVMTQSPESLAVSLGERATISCKLSMMVDYMSATHSSVAWYQQKAGQPPKLLIYQTSTREEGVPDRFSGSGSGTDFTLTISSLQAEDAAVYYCQQYHRLPLSFGGGTKVEIK	1.4 nM	6 of 6	1 of 18
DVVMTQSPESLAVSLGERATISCKLSPEMEYESRNKASVAWYQQKAGQPPKLLIYHASTRESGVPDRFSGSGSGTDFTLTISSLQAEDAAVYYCQQYHRLPLSFGGGTKVEIK	1.0 nM	6 of 6	0 of 18
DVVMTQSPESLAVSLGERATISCHISIKEPGNWKMMDSVAWYQQKAGQPPKLLIYHSSLRAEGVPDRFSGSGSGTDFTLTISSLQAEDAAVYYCQQYWRLPLMFGGGTKVEIK	3.1 nM	6 of 6	3 of 18
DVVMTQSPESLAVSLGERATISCKQSMSVMMGSRNKNSVAWYQQKAGQPPKLLIYSASKREAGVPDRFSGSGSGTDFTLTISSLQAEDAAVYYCQQYHRLPLSFGGGTKVEIK	11 nM	6 of 6	0 of 18
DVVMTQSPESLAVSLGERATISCHISQMWHLESKNKNNVAWYQQKAGQPPKLLIYEESTREDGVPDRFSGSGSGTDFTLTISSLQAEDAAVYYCQSYFRLPLSFGGGTKVEIK	1.8 nM	6 of 6	1 of 18
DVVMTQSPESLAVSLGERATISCKLTQHMRFEQKKKNNIAWYQQKAGQPPKLLIYEVTTRSKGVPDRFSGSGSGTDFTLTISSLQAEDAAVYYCQQYYRLPLAFGGGTKVEIK	not detected	0 of 6	0 of 18
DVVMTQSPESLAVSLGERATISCKYSMQELQEQRNKNSVAWYQQKAGQPPKLLIYNASTREEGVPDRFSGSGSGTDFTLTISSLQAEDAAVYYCQQYHRLPLSFGGGTKVEIK	43 nM	6 of 6	0 of 18
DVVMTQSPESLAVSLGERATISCMYSQSYLGEQRNKNSVAWYQQKAGQPPKLLIYHASTREEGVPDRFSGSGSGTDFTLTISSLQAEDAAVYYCQQYHRLPLSFGGGTKVEIK	1.2 nM	6 of 6	0 of 18
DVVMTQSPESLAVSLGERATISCKLLDYEYGTWAMNSAIAWYQQKAGQPPKLLIYDAALESDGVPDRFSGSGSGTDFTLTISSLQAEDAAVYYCQQYDRLPLTFGGGTKVEIK	12 nM	4 of 6	1 of 18
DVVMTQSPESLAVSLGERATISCHISMSMNYLSRNKNSIAWYQQKAGQPPKLLIYEESTREDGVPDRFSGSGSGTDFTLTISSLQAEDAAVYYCQQYYRLPLSFGGGTKVEIK	360 pM	6 of 6	1 of 18
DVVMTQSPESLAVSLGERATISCMVTQMAMTGMKNKRSVAWYQQKAGQPPKLLIYNAETREDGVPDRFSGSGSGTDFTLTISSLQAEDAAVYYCQQYHHLPLIFGGGTKVEIK	2.7 nM	6 of 6	0 of 18
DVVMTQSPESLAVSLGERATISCKISQMVRVGSTHSSSIAWYQQKAGQPPKLLIYEEQTRAKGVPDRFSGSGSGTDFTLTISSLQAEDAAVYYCQQYHRLPLAFGGGTKVEIK	not detected	0 of 6	0 of 18
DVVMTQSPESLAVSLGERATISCMISQVTGLGQRHRNNVAWYQQKAGQPPKLLIYQTSTREPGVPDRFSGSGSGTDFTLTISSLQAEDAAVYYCQQYDRLPLIFGGGTKVEIK	8.4 nM	6 of 6	1 of 18
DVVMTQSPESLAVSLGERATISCKGQQSQLYESQNWNSVAWYQQKAGQPPKLLIYNASKRESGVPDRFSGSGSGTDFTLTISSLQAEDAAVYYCQQYHRLPLSFGGGTKVEIK	1.4 nM	6 of 6	2 of 18
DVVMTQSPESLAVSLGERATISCKINGVLINNGIDMNAIAWYQQKAGQPPKLLIYQEHISNLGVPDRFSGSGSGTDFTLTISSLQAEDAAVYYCQQYFHLPLSFGGGTKVEIK	120 nM	5 of 6	0 of 18
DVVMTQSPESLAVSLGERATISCQIALSEEEVGIQKNSIAWYQQKAGQPPKLLIYEETVRPAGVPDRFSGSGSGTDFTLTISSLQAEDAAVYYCQQYLRLPLHFGGGTKVEIK	7.4 nM	3 of 6	0 of 18
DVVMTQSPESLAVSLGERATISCKINYMGEHFSTNHSAIAWYQQKAGQPPKLLIYQASTREQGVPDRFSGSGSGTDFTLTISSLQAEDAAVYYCQQYHRLPISFGGGTKVEIK	5.5 nM	6 of 6	0 of 18

The 2 strongest on average among those seen in every replicate, once more:

VL	apparent Kd	detected	control signals
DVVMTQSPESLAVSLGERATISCHISMSMNYLSRNKNSIAWYQQKAGQPPKLLIYEESTREDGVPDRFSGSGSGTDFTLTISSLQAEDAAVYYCQQYYRLPLSFGGGTKVEIK	360 pM	6 of 6	1 of 18
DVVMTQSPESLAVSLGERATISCKLSPEMEYESRNKASVAWYQQKAGQPPKLLIYHASTRESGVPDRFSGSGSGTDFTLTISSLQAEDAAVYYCQQYHRLPLSFGGGTKVEIK	1.0 nM	6 of 6	0 of 18

Values reported by Li et al. 2023, doi:10.1038/s41467-023-39022-2 (FLAb copy).